Laboratory results: ChEMBL document CHEMBL5614424, “Natural Product-Inspired Discovery of Naphthoquinone-Furo-Piperidine Derivatives as Novel STAT3 Inhibitors for the Treatment of Triple-Negative Breast Cancer” (J Med Chem, 2024)

Chains of the proteins cited; added tags and fusions are not shown.
UniProt P40763, whole entry: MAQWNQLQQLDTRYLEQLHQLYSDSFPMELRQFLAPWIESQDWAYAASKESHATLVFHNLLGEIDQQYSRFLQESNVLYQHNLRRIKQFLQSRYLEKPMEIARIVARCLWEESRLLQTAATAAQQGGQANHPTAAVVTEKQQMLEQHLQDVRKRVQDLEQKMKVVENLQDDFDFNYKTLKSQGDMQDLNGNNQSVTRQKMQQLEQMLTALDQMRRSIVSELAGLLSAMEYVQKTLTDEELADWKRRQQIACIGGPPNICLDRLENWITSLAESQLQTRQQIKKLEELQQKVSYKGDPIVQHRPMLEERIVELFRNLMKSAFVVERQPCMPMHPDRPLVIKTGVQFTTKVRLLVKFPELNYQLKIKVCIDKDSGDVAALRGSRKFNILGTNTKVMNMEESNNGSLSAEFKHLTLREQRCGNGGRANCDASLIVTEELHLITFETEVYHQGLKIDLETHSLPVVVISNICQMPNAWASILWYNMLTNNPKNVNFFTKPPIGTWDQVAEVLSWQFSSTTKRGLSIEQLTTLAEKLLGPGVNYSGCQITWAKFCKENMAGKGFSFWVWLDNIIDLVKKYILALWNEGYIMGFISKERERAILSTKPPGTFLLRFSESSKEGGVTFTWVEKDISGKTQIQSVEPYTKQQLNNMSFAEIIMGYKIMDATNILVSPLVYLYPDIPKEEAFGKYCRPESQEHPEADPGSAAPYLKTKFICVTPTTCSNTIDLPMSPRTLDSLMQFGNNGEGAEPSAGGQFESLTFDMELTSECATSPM

Target: Signal transducer and activator of transcription 3 (Homo sapiens) (UniProt P40763)
Assay: Inhibition of STAT3 activation in human MDA-MB-231 cell assessed as decrease in phosphorylated STAT1 (Tyr727) level at 2.5 uM measured after 24 hrs by Western blot analysis
Format: cell-based

SMILES: CC(=O)c1cc2c(o1)C(=O)c1ccccc1C2=O [NAPABUCASIN]
- inhibition: inactive

Active and inactive are the calls of the source. The rule behind the calls is not given here.
